1 molecule from article PMC10535824, “Tryptophan Substitution in CJ-15,208 (cyclo[Phe-D-Pro-Phe-Trp]) Introduces δ-Opioid Receptor Antagonism, Preventing Antinociceptive Tolerance and Stress-Induced Reinstatement of Extinguished Cocaine-Conditioned Place Preference” (Pharmaceuticals, 2023) can be followed below.

In the assay the test system is MOR, KOR, DOR. In words: opioid receptor involvement in antinociception (KO mice / selective antagonist pretreatment), tail-withdrawal assay. It is filed as in vivo, mouse. To be noted: dose producing maximum antinociception, i.c.v., KOR KO mice or β-FNA, nor-BNI, naltrindole pretreatment. On the procedure: Except for the Bta^4 analog, contributions of the MOR and KOR were assessed in knockout (KO) mice for those receptors; DOR contribution to the antinociceptive activity of the analogs was assessed by pretreating mice with naltrindole (20 mg/kg, i.p., −20 min) prior to administration of analog (Figure 3).
Assessment of DOR involvement in the agonist activity of each macrocyclic peptide was performed by pretreating additional wild-type mice with a single dose of naltrindole (20 mg/kg, i.p.) 20 min in advance of administration of the macrocyclic peptide.

The structures appear in SMILES notation.

Consider `CN1CC[C@]23c4c5ccc(O)c4O[C@H]2[C@@H](O)C=C[C@H]3[C@H]1C5` [Morphine, reference compound], for which the “Receptors Involved in antinociception” value is given as “MOR”.
